Assay results reported in US9975933B2.

Target: FcγRIIIb (Homo sapiens (Human)) (UniProt O75015)
Test: SPR

Q: Which Kd does the source give for Cetuximab (antibody) here?
A: The Kd was 8.23 µM.
